Results taken from patent US8252796B2, “1-butyl-2-hydroxyaralkyl piperazine derivatives and the uses as anti-depression medicine thereof” (CSPC Zhonggi Pharmaceutical Technology (Shijiazhuang) Co. …, priority 2008, dated 2012).

Sequences of proteins named here, by UniProt entry; tags and fusion partners are left off.
UniProt P23977, whole entry: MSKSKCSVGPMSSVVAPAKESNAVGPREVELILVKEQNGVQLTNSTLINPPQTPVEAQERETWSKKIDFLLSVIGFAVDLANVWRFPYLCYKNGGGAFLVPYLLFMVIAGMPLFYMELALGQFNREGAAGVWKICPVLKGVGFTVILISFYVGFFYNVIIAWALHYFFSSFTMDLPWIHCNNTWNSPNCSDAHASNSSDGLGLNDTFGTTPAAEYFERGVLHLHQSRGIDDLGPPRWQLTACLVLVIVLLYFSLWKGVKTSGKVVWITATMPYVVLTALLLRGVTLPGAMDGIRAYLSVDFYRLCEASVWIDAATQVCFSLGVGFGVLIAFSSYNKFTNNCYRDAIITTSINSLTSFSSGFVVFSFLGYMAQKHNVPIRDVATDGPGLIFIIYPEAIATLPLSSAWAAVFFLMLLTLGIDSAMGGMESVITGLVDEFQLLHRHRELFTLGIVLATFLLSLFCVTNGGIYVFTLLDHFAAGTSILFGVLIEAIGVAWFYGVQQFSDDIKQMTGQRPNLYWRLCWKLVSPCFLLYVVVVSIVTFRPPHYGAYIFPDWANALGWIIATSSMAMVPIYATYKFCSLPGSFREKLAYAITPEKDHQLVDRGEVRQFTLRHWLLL

Target: T1, reuptake of [3H]DA by striatum synaptosomes (Rattus norvegicus, UniProt P23977)
T1 construct: from tissue; host or cells: rat striatum synaptosomes
Assay: IC50 for inhibiting reuptake of [3H]DA by brain synaptosomes (Example 36)
Assay type: biochemical
Description: Male SD rats were sacrificed by cervical dislocation and then the brains thereof were taken out rapidly by decollation and placed on ice. Related rain tissues (for [^3H]5-HT and [^3H]NA reuptake experiment, prefrontal cortex was taken; for [^3H]DA reuptake experiment, striatum was taken) were separated and weighed. 10 times (V/W) of 0.32 mol/L ice-cold sucrose solution was added and was homogenized electrically with glass-teflon. The homogenate was centrifugated at 4° C. at 1000 g×10 min. Then the supernatant was taken and centrifugated at 4° C. at 17000 g×20 min. The precipitation was suspended in 30 volume of KRH Buffer (125 mM NaCl, 4.8 mM KCl, 1.2 mM CaCl2, 1.2 mM MgSO4, 1.0 mM KH2PO4, 22 mM NaHCO3, 25 mM HEPES, 10 mM Glucose, 10 μM Pargyline, 0.2 mg/ml Ascorbic Acid) and then was preserved in an ice bath for use. (for NA reuptake experiment, the cortex needed was suspended in 20 volume of KRH Buffer)
1. Preparation of Rat Brain Synaptosomes (the Same as Example 35)
The compounds were used for the studies on inhibition effect (IC50) on reuptake of [^3H]5-HT/NA/DA. […] Each concentration was determined by the average of double twin tubes and the test was repeated for more than 3 times. […]
Sigmoidal curve fitting was performed for the data obtained from all of the test drugs by Origin 6.1, and the IC50 value was calculated.

COc1ccc(C(CN(C)C)C2(O)CCCCC2)cc1 (stereo not shown) [venlafaxine, reference compound] showed an IC50 of 3.07 µM.
